# Binding of CDR-mutated scFvs to a peptide of the spike HR2 region

Binding partner: SARS-CoV-2 spike HR2 peptide, sequence PDVDLGDISGINAS.

The variants keep the light chain, the linker and the frameworks of Ab-14 (scFv order VH, a 15-residue (Gly4Ser)3 linker, VL).
VH: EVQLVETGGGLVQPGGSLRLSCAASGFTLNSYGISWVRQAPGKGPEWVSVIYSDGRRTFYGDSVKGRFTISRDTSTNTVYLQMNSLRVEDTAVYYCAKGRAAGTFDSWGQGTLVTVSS
VL: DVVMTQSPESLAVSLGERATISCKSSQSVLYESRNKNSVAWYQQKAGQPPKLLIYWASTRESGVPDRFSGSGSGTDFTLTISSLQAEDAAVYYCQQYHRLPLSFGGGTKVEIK

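The starting antibody came from a phage panning campaign against this peptide. Library AAYL49 holds single substitutions and randomly drawn double and triple substitutions in the CDRs. In AlphaSeq, yeast of one mating type display the scFv and yeast of the other type display the target. Pairs that bind mate more often; barcode pairs of the diploids are counted by sequencing. Scores were corrected for input abundance and mapped to Kd with protein pairs of known affinity run in the same pool. There are three technical replicates.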

Substitutions are numbered in sequence along the VH above, starting at 1 (not Kabat).
The read-out is the apparent dissociation constant on a log10 scale (nM): the lower, the stronger.
A mean of the replicates is given; it leaves out those without a signal.
"nd" marks a missing value. The strain was present, yet no cells mated with the target were sequenced in any replicate, which points to weak or no binding.
Nonspecific signal, from three strains lacking the peptide, appeared in 15% of pairings of library AAYL49, centred on 4.06 (5% of these signals below 2.83); values are not corrected for it.

"mean, log10 nM",detected,changes
nd,0/3,Y52T/Y60S/A101G
4.12,2/3,L29K/S35G/I51C
2.75,1/3,D54K/R57M/D62Q
5.64,1/3,L29V/V50H/T104P
4.10,2/3,N30E/G33E/Y60Q
nd,0/3,F27D/G103W/D106Y
4.18,3/3,Y32A/G61H/S63T
nd,0/3,D54P/D106V
nd,0/3,S63L/G99D
5.01,2/3,N30L/S35A/D106E
nd,0/3,V50F/I51R/Y60L
3.98,3/3,G26Q/T104R
nd,0/3,V50E/Y60L/R100I
nd,0/3,N30I/R100K/A102I
nd,0/3,I34C/T104C/S107G
3.58,1/3,G26R/G33N/V50M
nd,0/3,N30G/V50Q/G103D
nd,0/3,T28P/L29C/Y32N
1.26,3/3,T28M/F59M/F105I
3.76,1/3,Y32W/S53I/A101C
3.21,1/3,T28Q/Y32H/T104W
nd,0/3,F59P/Y60Q/D106A
5.35,2/3,Y52S/R57V/D62S
nd,0/3,Y32P/S35V/F105Y
3.74,1/3,N30K/G61R/G103S
3.58,1/3,L29G/R56L/R57Q
3.43,2/3,S53Q/G103L
4.25,1/3,G55M/D62F/D106Y
nd,0/3,T28F/S53C/R56A
nd,0/3,Y32P/I51M/G61S
nd,0/3,S53F/G55I/K65L
3.95,2/3,F27Y/N30W/R56Y
5.63,1/3,I51C/S63V/V64K
4.56,3/3,I34Y/T58L/R100I
nd,0/3,F27W/N30T/K65H
1.89,3/3,I34V/S53W/R56H
nd,0/3,R56G/K65C/G99N
4.37,1/3,Y52H/G55I
3.75,1/3,D54M/A101R/F105Q
nd,0/3,G33K/S35A/S63R
4.20,1/3,S53M/Y60R/R100A
nd,0/3,I51K/V64Y/T104N
nd,0/3,F27S/I34H/Y60C
3.78,1/3,F27C/L29K/F105C
nd,0/3,D54V/T58S/K65V
5.99,2/3,N30H/S63D/G103E
nd,0/3,I34H/F59Q/V64L

The first 5 variants above that were never detected:

changes,"mean, log10 nM",detected
Y52T/Y60S/A101G,nd,0/3
F27D/G103W/D106Y,nd,0/3
D54P/D106V,nd,0/3
S63L/G99D,nd,0/3
V50F/I51R/Y60L,nd,0/3

Data: MIT Lincoln Laboratory AlphaSeq set, Engelhart et al. 2022, doi:10.1038/s41597-022-01779-4, as distributed in FLAb.